This note sets out measurements from article PMC3982398 (Biochemical pharmacology, 2009).

Data set [1] concerns human placental microsomes.
The conditions of data set [2]: human, in vivo.

Consider ethylene-hydroxylated glyburide [M5], for which the “amount of metabolite formed as percent of the total metabolites” value in data set [1] came to 92%. For the same substance, in data set [2], the excretion in urine entry is recorded as “excreted in small amounts in urine”.
